In ChEMBL document CHEMBL1142463 (Bioorg Med Chem Lett, 2008) one finds IC50 data, which are given here for 4 compounds.

For assay [1], the target named is T1, Phospholipase A2, membrane associated (Rattus norvegicus, UniProt P14423).
T1 sequence (P14423 whole entry): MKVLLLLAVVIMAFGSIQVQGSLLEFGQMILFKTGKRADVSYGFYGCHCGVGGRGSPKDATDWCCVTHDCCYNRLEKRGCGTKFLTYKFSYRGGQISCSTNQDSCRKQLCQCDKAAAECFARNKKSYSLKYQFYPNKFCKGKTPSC
The assay can be described thus: Inhibition of rat sPLA2 group 2A.

The target of assay [2] is T2, Phospholipase A2 group V (Homo sapiens, UniProt P39877).
T2 sequence (P39877 whole entry): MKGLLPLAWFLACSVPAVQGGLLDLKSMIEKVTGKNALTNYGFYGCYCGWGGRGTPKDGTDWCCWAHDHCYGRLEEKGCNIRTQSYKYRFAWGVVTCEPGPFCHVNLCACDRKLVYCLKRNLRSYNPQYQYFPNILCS
Description: Inhibition of human sPLA2 group 5.

Assay [3] has as its target T3, Phospholipase A2, membrane associated (Homo sapiens, UniProt P14555).
T3 sequence (P14555 whole entry): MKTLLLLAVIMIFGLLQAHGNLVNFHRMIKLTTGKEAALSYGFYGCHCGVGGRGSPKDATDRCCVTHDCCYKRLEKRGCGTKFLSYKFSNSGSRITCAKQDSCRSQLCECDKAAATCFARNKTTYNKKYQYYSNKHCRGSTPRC
Description: Inhibition of human sPLA2 group 2A.

Assay [4] deals with T3, Phospholipase A2, membrane associated. Description: Inhibition of sPLA2 group 2A.

In general, IC50 refers to the concentration that gives 50% inhibition. Low readings indicate greater potency, high ones weaker potency. Consider `CCCCCCCCCCCC(=O)c1c(O)c(C(=O)CCCCCCCCCCC)c(O)c(C2CC(c3ccc(O)cc3)Oc3cc(O)ccc32)c1O` (configuration not stated), for which the IC50 was found to be 120 nM in assay [1], 110 nM in assay [2], 80 nM in assay [3] and 1000 nM in assay [4]. As to `CCCCCCCCCCCC(=O)c1c(O)c(C(=O)CCCCCCCCCCC)c(O)c([C@@H]2C[C@@H](c3ccc(O)cc3)Oc3cc(O)ccc32)c1O`, in assay [1], the IC50 is 120 nM. `CCCCCCCCCCCC(=O)c1c(O)c(C(=O)CCCCCCCCCCC)c(O)c([C@H]2C[C@@H](c3ccc(O)cc3)Oc3cc(O)ccc32)c1O` registered an IC50 in assay [1] of 70 nM. In assay [1], `CCCCCCCCCCCC(=O)c1c(O)c(C(=O)CCCCCCCCCCC)c(O)c([C@@H]2C[C@H](c3ccc(O)cc3)Oc3cc(O)ccc32)c1O` registered an IC50 of 60 nM.
